{"source": "patent US7615610B2", "about": "“Modified trafficking patterns for arrestin and G-protein-coupled receptors via arrestin-ubiquitin chimera” (Duke University, priority 2003, dated 2009)", "target": "T1, V2Rβ2CT (Homo sapiens, UniProt P07550+P30518)", "T1 construct": "the first 342 amino acids of the V2R (Met1-Cys342); the last 72 amino acids of the β2AR (Leu342 to Leu 413); expressed in transfected cells; host or cells: HEK-293", "test": "Confocal microscopy of arrestin trafficking with V2Rβ2CT in HEK-293 cells", "assay_type": "cell-based", "conditions": "live HEK-293 cells expressing V2Rβ2CT, 15 min and longer", "experimental": "HEK-293 cells were transiently transfected with either YFP-β-arrestin2 or YFP-β-arrestin2-Ub along with β2AR (A) or V2Rβ2CT (B). Cells were starved for one hour in serum free media. The distribution of YFP-β-arrestin2 and YFP-β-arrestin2-Ub was visualized before and after treatment with 10 μM isoproterenol(A) or AVP (B). Shown are representative confocal images of YFP-fluorescence followed in the same HEK-293 cells treated for 2, 15 and 30 min at 37° C.\nHEK-293 cells on 10 cm dishes were transiently transfected with HA-β2AR, HA-V2R, HAβ2ARV2CT, or HAV2Rβ2CT, along with β-arr2-GFP, or YFP-βarrestin2, or YFP-β-arrestin2-Ub. Twenty-four hours post-transfection cells were plated on collagen-coated 35 mm glass bottom plates. Cells were starved for at least 2 hrs in serum free medium prior to stimulation. After stimulation cells were fixed with 4% paraformaldehyde. For visualizing HA-tagged receptors, fixed cells were permeabilized with 0.01% Triton in PBS containing 2% BSA for 20 min and incubated at room temperature with 12CA5 antibody at 1:500 dilution. The secondary antibody, antimouse IgG conjugated to TexasRed, followed this. Antibody incubations were done for one hour followed by repeated washes using PBS. Cells expressing low and equivalent levels of the fluorescent proteins were carefully selected to examine YFP-β-arrestins. […]"}
{"substance": "YFP-β-arrestin2: wild type β-arrestin2 tagged with YFP, comparator", "values": [{"measurement": "distribution of YFP fluorescence after AVP", "value": "remained at the plasma membrane at longer time points"}]}
